Columns and labels:
[1] = target: Tribolium castaneum sulfakinin receptor 1 (T. castaneum)
[2] = target: Tribolium castaneum sulfakinin receptor 2 (T. castaneum)

aequorin bioluminescence in CHO-WTA11 cells transfected with the receptor, peptide at 1 μM, % of the response to 1 μM sTrica-SK(5–13) [1]: 40.1%
aequorin bioluminescence in CHO-WTA11 cells transfected with the receptor, peptide at 1 μM, % of the response to 1 μM sTrica-SK(5–13) [2]: 57.4%
Substance: nonsulfated (ns) drosulfakinin 2 (peptide)

Reference: article PMC3981819, “Signaling Properties and Pharmacological Analysis of Two Sulfakinin Receptors from the Red Flour Beetle, Tribolium castaneum” (PLoS ONE, 2014)
